Biological target: T1, MAO-A (Homo sapiens, UniProt P21397)
T1 construct: tissue Banner Sun Health Research Institute; host or cells: postmortem human anterior cingulate / corpus callosum sections (CN, AD, PD subjects)
Test: Effect of drugs on the binding of [^18F]FAZIN3 in postmortem human brain sections
Conditions: drug 1 μM
Procedure: MK-6240 (10 μM) was used since it is known to bind to Tau. […] The slides containing the sections (10 μm thick) were preincubated in PBS buffer for 15 minutes in eight different slide chambers (one total binding and seven with the different drugs). The preincubation PBS buffer was discarded and appropriate amount of each drug (dissolved in ethanol) was added to the chambers with the slides. […] The chambers were incubated at 25° C. for 1.25 h. The slides were then washed with cold PBS buffer twice, and cold water, respectively. The slides with the brain sections were air dried, exposed overnight on a phosphor film, and then placed on the Phosphor Autoradiographic Imaging System/Cyclone Storage Phosphor System (Packard Instruments Co).

Amino acid sequences for entries named in this document (tags omitted).
UniProt P21397, whole entry: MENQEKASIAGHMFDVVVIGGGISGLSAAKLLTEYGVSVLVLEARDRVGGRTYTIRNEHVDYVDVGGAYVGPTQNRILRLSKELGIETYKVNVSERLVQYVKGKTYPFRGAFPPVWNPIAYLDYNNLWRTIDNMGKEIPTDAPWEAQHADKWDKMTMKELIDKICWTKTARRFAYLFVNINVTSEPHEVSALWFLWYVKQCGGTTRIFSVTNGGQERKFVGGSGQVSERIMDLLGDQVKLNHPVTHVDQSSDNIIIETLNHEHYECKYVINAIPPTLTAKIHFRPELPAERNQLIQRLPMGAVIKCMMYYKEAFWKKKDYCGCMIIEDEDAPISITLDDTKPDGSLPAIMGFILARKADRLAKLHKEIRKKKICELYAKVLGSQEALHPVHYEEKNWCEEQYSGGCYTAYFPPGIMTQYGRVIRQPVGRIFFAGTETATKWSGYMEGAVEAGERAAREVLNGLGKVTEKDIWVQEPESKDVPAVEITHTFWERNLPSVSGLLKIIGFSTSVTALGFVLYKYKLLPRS

Row | SMILES | displacement (inhibition) of [^18F]FAZIN3 binding | displacement (inhibition) of [^18F]FAZIN3 binding (listed as deprenyl)
1 | C#CCN(C)C(C)Cc1ccccc1 (stereo not drawn) [Deprenyl] | little effect | did not have much effect
2 | C#CCN(C)CCCOc1ccc(Cl)cc1Cl [Clorgyline] | more than 80% | –
